A short description of series [1]: Half life in mouse plasma.
The nature of a further series: in vivo. Conditions: mouse, brain.
Series [2] has as its target T1, Prostaglandin E2 receptor EP2 subtype (Homo sapiens, UniProt P43116). Description: Binding affinity to EP2 receptor (unknown origin) by competitive binding assay.
Series [3] addresses T1, Prostaglandin E2 receptor EP2 subtype. In words: Agonist activity at EP2 receptor (unknown origin) by functional assay.

Protein sequences, listed by entry. Tags and fused reporters are not part of them. Lines headed by an entry give the natural chain unless they say otherwise; changes in a name come on top.
UniProt P43116: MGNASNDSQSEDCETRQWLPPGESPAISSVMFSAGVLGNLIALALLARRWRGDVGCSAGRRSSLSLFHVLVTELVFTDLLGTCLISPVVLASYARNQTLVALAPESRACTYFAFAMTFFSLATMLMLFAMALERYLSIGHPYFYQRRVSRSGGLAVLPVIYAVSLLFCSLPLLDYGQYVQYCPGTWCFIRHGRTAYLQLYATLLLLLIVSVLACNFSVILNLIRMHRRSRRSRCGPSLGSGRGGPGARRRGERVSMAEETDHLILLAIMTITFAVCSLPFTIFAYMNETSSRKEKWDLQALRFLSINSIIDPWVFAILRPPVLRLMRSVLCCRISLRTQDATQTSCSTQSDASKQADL

From ChEMBL document CHEMBL3286161, “Prostanoid receptor EP2 as a therapeutic target” (J Med Chem, 2014) come the findings set out here.

In series [1], `COc1cc(/C=C/C(=O)NCCn2c(C(F)(F)F)cc3ccccc32)cc(OC)c1OC` had a half-life of 1.6 h. Besides, the Kp in “in vivo” turned out to be 1.6.

For `CCCCC[C@H](O)/C=C/[C@H]1[C@H](O)CC(=O)[C@@H]1C/C=C\CCCC(=O)O` [DINOPROSTONE], the Ki in series [2] was determined as 38 nM. Besides, the EC50 in series [3] turned out to be 2.1 nM.
